This note sets out measurements from patent publication US12528869B2, “Treatment of non-small cell lung cancer with EGFR mutations” (Janssen Biotech, Inc., priority 2020, dated 2026).

SMILES strings stand for the structures.

The assay relates to EGFR and EGFR downstream signaling in Ba/F3 cells overexpressing D770delinsGY and H773_V774insH. Nature of the assay: Immunoblot analysis in Ba/F3 cells. In kind it is cell-based. The text has this:
Five distinct Exon20ins were introduced (FIG. 1B), all of which have been observed in NSCLC patients (V769_D770insASV, D770delinsGY, H773_V774insH, Y764_V765insHH and D770_N771insSVD) (20,21).
Background: Immunoblotting shows a protein as a band on a membrane.

For `COc1cc2ncnc(Nc3ccc(F)c(Cl)c3)c2cc1OCCCN1CCOCC1` [gefitinib], the “downstream EGFR signaling pathway components” value is recorded as “not inhibited” and the p-EGFR entry is given as “reduced p-EGFR”.
